# The list is not random: actives were taken first. Their share in the collection is about 13%.
# Lamin A splicing: modulators of lamin A splicing; HeLa LMNA splicing GFP/RFP minigene ratio, 48 h; Potency, µM (titrated, usually from 46.1 µM), without a hit: top-dose ratio change, negative = inhibition, actives largely listed as inhibitors; 0.01% of 200,000 active; active = well fitted inhibition curve with a large enough effect in the signal ratio, with a control signal flat, not every such curve was filed as active; inconclusive = small, poorly fitted or top-dose-only effect, or effect the other way, or a change in a side signal; the % refers to the signal ratio; note: potency is the fitted concentration of half-maximal effect; % is set by controls: 0 for no effect and ±100 for the full control effect
#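 Read-out is the ratio of GFP to DsRed2 object intensity, acquired by 488 nm laser-scanning cytometry on HeLa lamin A-EGFP minigene reporter cells. Compound incubation 48 hrs at 37 °C in Opti-MEM with 2% FBS; DMSO 0.5% final.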
# miR-21 reporter: raises the signal of a miR-21 reporter | HeLa miR-21 FLuc reporter, luciferase, 48 h | Potency, µM (doses to about 38.3 µM), for the others: at the highest dose reporter change, positive = more light | 340,000 tested, under 10 active | AID 2288; active = well fitted rising curve with a large enough effect; inconclusive = small, poorly fitted or top-dose-only effect; inactive = no such curve, though single readings can be large or run the other way;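 also: % of control where 0% means no effect; miR-21 action dims this reporter so a rising signal means less miR-21 action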
#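 Luminescence from a firefly luciferase reporter carrying a miR-21 binding site downstream, stably expressed under a CMV promoter in HeLa cells that make miR-21 endogenously, reports miRNA modulation after 48 h compound exposure up to approximately 40uM final.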
# KDM4E inh: blocks human JMJD2E demethylase activity; B2RXH2; JMJD2E catalytic domain, FDH-coupled NADH fluorescence (FDH is formaldehyde dehydrogenase); Potency, µM (titrated, usually from 57.1 µM), for inactives: at the highest dose activity change, negative = inhibition, hits mostly inhibitors; 1.6% of 230,000 active; AID 2147; active = well fitted inhibition curve with a large enough effect, not every such curve was filed as active; inconclusive = small, poorly fitted or top-dose-only effect, or another doubt; inactive = no such curve, though single readings can be large or run the other way;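 note: potency is the fitted concentration of half-maximal effect; 0% = wells with enzyme and -100% = buffer wells without enzyme; nearly all actives have a fitted effect of over 50% in size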
# ALDH1A1 block: blocks purified human ALDH1A1 activity | P00352 | Purified ALDH1A1, NADH fluorescence, propionaldehyde substrate | Potency, µM (doses to about 75.3 µM), without a hit: at the highest dose activity, negative = inhibition, actives largely listed as inhibitors | 7.3% of 220,000 active | AID 1030; active = well fitted inhibition curve with a large enough effect, not every such curve was filed as active; inconclusive = small, poorly fitted or top-dose-only effect, or another doubt; inactive = no such curve, though single readings can be large or run the other way;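 note: potency is the fitted concentration of half-maximal effect; plate controls were no enzyme wells and a reference inhibitor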
# G9a inh: blocks human histone lysine methyltransferase G9a; G9a H3K9 monomethylation, AlphaScreen, 2 h; Q96KQ7; AID 504332; 8.8% of 350,000 active; Potency, µM (highest dose often 102 µM), for the others: at the top dose activity, negative = inhibition, actives largely listed as inhibitors; note: potency is the fitted concentration of half-maximal effect; % is set by controls: 0 for no effect and ±100 for the full control effect; nearly all actives have a fitted effect of over 75% in size
#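 AlphaScreen read-out: biotin-H3K9 peptide (500 nM) methylation by 20 nM enzyme with 20 uM SAM, 2 h at room temperature after 15 min compound preincubation; anti-monomethyl H3K9 antibody plus donor/acceptor beads, 10 min dark.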
# Sfp inh: inhibitors of Bacillus subtilis Sfp phosphopantetheinyl transferase. Q9F4F7. Biochemical Sfp PPTase activity, qHTS. Potency, µM, for the others: max response, negative = inhibition, most hits filed as inhibitors. actives 3.5% (n = 310,000). AID 1490; active means well fitted inhibition curve with a large enough effect; inconclusive means small, poorly fitted or top-dose-only effect, or another doubt; inactive means no such curve, though single readings can be large or run the other way;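 further: the enzyme is Sfp with the accession as filed and its product quenches rhodamine fluorescence; potency means the concentration at half of the fitted maximal effect; 0% = enzyme reaction without inhibitor and -100% = no enzyme wells; top concentration of the series not given in the record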
#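 Buffer: 50 mM Hepes-Na pH 7.6, 10 mM MgCl2, 0.01% Nonidet P-40, 0.01% BSA. Enzyme 15 nM, pre-exposed to compound 15 min; substrates then added and fluorescence change tracked over 30 min.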
# The depositor's hits bear a star; ? = inconclusive; nt = no result; [ ] = another dose, or the depositor's remark. Unless noted, calls come from the whole dose curve; as a rule, active = well fitted curve in the direction sought with a large enough effect; inconclusive = small, poorly fitted or top-dose-only effect, or another doubt; inactive = no such curve, though single readings can be large; an effect the other way counts as inactive or inconclusive.
1. CCOc1cc(C2C(C(=O)OC)=C(C)NC3=C2C(=O)c2ccccc23)c(Br)cc1O (stereo not given)
2. COc1cccc(C2C3=C(Nc4[nH]n(-c5ccccc5)c(=O)c42)c2ccccc2C3=O)c1 (stereo not given)
3. CCOc1cc(Br)c(C2C(C(=O)OC)=C(C)NC3=C2C(=O)c2ccccc23)cc1OCC (stereo not given)
4. C#CCOc1ccc(C2C(C(=O)OC)=C(C)NC3=C2C(=O)c2ccccc23)cc1OCC (stereo not given)
5. CCOC(=O)/C(=N/Nc1ccc(OC)cc1)N1CCCc2ccccc21
6. CCOC(=O)/C(=N/Nc1ccccc1OC)N1CCCc2ccccc21
7. COc1ccc(-c2noc(CC(=O)Nc3ccc(Br)cc3C)n2)cc1
8. CC1CCC2(CC1)NC(=O)N(CC(=O)c1cn(CCC#N)c3ccccc13)C2=O (stereo not given)

screen / no. | 1 | 2 | 3 | 4 | 5 | 6 | 7 | 8
Lamin A splicing | ? | -11% | nt | nt | nt | nt | nt | nt
miR-21 reporter | 6% | -5% | 11% | -6% | 1% | -14% | -5% | -4%
KDM4E inh | nt | 7% | nt | nt | -6% | -1% | nt | 1%
ALDH1A1 block | nt | 20µM* | nt | nt | nt | nt | nt | 7.1µM*
G9a inh | 16µM* | 10µM* | 18µM* | 11µM* | 22µM* | 2.5µM* | 0%[59 µM] | 25%
Sfp inh | nt | -21% | nt | nt | -8% | 3% | nt | 13%

9. Cc1[nH]c2ccccc2c1C(=O)CN1C(=O)C(=O)N(C2CCCC2)C1=O
10. N#CCCn1cc(C(=O)CN2C(=O)C(=O)N(C3CCCC3)C2=O)c2ccccc21
11. O=S(=O)(N/N=C/c1cccnc1)c1ccc(Cl)c(Cl)c1
12. COCCNC(=O)C1CCCN(S(=O)(=O)c2cccc3nsnc23)C1 (stereo not given)
13. O=C1N2CCCc3cccc(c32)C12Nc1ccccc1S2 (stereo not given)
14. CC1CC(C)(C)N2C(=O)C3(Nc4ccccc4S3)c3cccc1c32 (stereo not given)
15. O=C1CSC2(C(=O)N3CCCc4cccc2c43)N1c1cccc(C(F)(F)F)c1 (stereo not given)
16. COc1cc2c(=O)c(C(=O)c3ccc(F)cc3)cn(Cc3cccc(F)c3)c2cc1OC

screen / no. | 9 | 10 | 11 | 12 | 13 | 14 | 15 | 16
Lamin A splicing | nt | nt | nt | nt | -14% | -3% | 4% | nt
miR-21 reporter | -9% | nt | -11% | 0% | -5% | 12% | -1% | 1%
KDM4E inh | -3% | nt | 7% | nt | 3% | -6% | -4% | nt
ALDH1A1 block | 2% | nt | nt | nt | 14µM* | ? | ? | nt
G9a inh | -34% | 50µM* | 18µM* | 8% | -9%[12.7 µM] | 45µM* | -10%[59 µM] | 9%[59 µM]
Sfp inh | 7% | nt | -1% | 16% | 50µM* | ? | 10% | nt

17. COc1ccccc1CCNC(=O)CNC(=O)Cc1cccc2ccccc12
18. CC(=O)NC(C)c1cc(Cl)c2cccnc2c1O (stereo not given)
19. CN1CCN(C(c2ccc(Br)cc2)c2cc(Cl)c3cccnc3c2O)CC1 (stereo not given)
20. CN(c1nnc(NC(=O)Nc2ccc(Br)cc2)s1)C1CCCCC1
21. COC(=O)NC(NS(=O)(=O)c1ccccc1)(C(=O)OC)C(F)(F)F (stereo not given)
22. CCOC(=O)C(NS(=O)(=O)c1ccccc1)(C(F)(F)F)P(=O)(OCC(C)C)OCC(C)C (stereo not given)
23. CC1CN(C(=S)Nc2ccccc2C(F)(F)F)CC(C)O1 (stereo not given)
24. COC(=O)COc1ccc(C2Nc3c(Cl)ccc(C(=O)O)c3C3C=CCC32)cc1 (stereo not given)

screen / no. | 17 | 18 | 19 | 20 | 21 | 22 | 23 | 24
Lamin A splicing | nt | nt | nt | nt | nt | -9% | nt | 4%[46 µM]
miR-21 reporter | 3% | nt | ? | -2% | -1% | 8% | 15% | 0%
KDM4E inh | nt | nt | nt | nt | 6% | -8% | nt | ?
ALDH1A1 block | nt | nt | nt | nt | -3% | ? | nt | ?
G9a inh | 5% | 27%[12.7 µM] | 7.9µM* | ? | 12% | 10µM* | 85% | 13µM*
Sfp inh | -3% | nt | 50µM* | nt | 8% | -1% | 15% | 10µM*

25. COc1ccc(OC)c(C2Nc3c(Cl)ccc(C(=O)O)c3C3C=CCC32)c1 (stereo not given)
26. Cc1cccc(NC(=O)CS(=O)CC(=O)Nc2cnc3ccccc3c2)c1C (stereo not given)
27. Clc1ccccc1CN1CCC(Cc2ccccc2)CC1
28. Cc1[nH]c2ccccc2c1CN1CCC(Cc2ccccc2)CC1
29. Cc1[nH]c2ccccc2c1CN1CCN(c2ccccn2)CC1
30. CC1CN(Cc2ccccc2Cl)CC(C)O1 (stereo not given)
31. Oc1ccc(CN2CCC(Cc3ccccc3)CC2)c2cccnc12
32. Cc1ccc(C(=O)Nc2nnc(S(=O)(=O)N3CCC(C)CC3)s2)cc1

screen / no. | 25 | 26 | 27 | 28 | 29 | 30 | 31 | 32
Lamin A splicing | nt | nt | -11% | nt | nt | -2% | nt | nt
miR-21 reporter | -1% | -1% | 1% | 2% | 0% | -1% | ? | -24%
KDM4E inh | ? | nt | -1% | 25µM* | -1% | ? | ? | nt
ALDH1A1 block | 3% | nt | ? | ? | nt | -9% | 5% | nt
G9a inh | 20µM* | -3% | 10µM* | 14µM* | ? | 8.9µM* | 35µM* | -7%
Sfp inh | 22µM* | -4% | -23% | 79µM* | 16% | ? | 19% | 23%

33. CC(C)(C)NC(=O)CN(C(=O)CNS(=O)(=O)c1ccc(Cl)cc1)c1ccc2c(c1)OCCO2
34. CN1CCN(Cc2c(O)ccc3cc(-c4ccc(Cl)cc4)c(=O)oc23)CC1
35. CS(=O)(=O)N1CCN(Cc2ccccc2C(F)(F)F)CC1
36. Cc1ccc(CN2CCN(Cc3ccccc3C(F)(F)F)CC2)cc1
37. FC(F)(F)c1ccccc1CN1CCC(Cc2ccccc2)CC1
38. Cc1cccc(-n2c(C)c(C)c3c(N)ncnc32)c1
39. COC(=O)c1ccc2c(=O)n(CCCN3CCOCC3)c(=S)[nH]c2c1
40. COc1ccc(N2CCN(CCNC(=O)c3ccc4c(c3)[nH]c(=S)n3c5ccccc5nc43)CC2)cc1

screen / no. | 33 | 34 | 35 | 36 | 37 | 38 | 39 | 40
Lamin A splicing | nt | ? | 11% | -10% | nt | nt | 1% | ?
miR-21 reporter | 4% | -20% | -8% | 3% | 3% | -26% | -2% | 0%
KDM4E inh | nt | nt | -6% | ? | nt | nt | -6% | ?
ALDH1A1 block | nt | nt | -1% | -4% | nt | nt | ? | ?
G9a inh | 14% | -14%[59 µM] | 14%[59 µM] | 2µM* | 22µM* | 50µM* | ? | 50µM*
Sfp inh | 13% | nt | 11% | ? | -18% | 11% | 1% | 20%

41. CCn1c(=S)[nH]c2cc(C(=O)OC)ccc2c1=O
42. COC(=O)c1ccc2c(=O)n(NC(C)=O)c(=S)[nH]c2c1
43. O=C(NCCCN1CCOCC1)c1ccc2c(=O)n(Cc3cccc(Br)c3)c(=S)[nH]c2c1
44. COCCn1c(=S)[nH]c2cc(C(=O)NCCCN3CCOCC3)ccc2c1=O
45. CCOc1ccccc1NC(=O)Nc1cc2c(cc1N1CCCCC1)n(CC)c(=O)n2CC
46. CCOc1cc2[nH]c(=O)n(CCCCC(=O)N3CCN(c4ccccc4OC)CC3)c(=O)c2cc1OCC

screen / no. | 41 | 42 | 43 | 44 | 45 | 46
Lamin A splicing | 1% | 7% | nt | 12% | -7%[46 µM] | ?
miR-21 reporter | -13% | -1% | 7% | 5% | 14% | -2%
KDM4E inh | 15% | ? | nt | -1% | nt | nt
ALDH1A1 block | 7% | ? | nt | 16µM* | nt | nt
G9a inh | ? | ? | 35µM* | nt | ? | 0%[59 µM]
Sfp inh | 16% | 4µM* | -4% | 79µM* | nt | nt

# Screening data deposited in PubChem BioAssay by National Center for Advancing Translational Sciences (NCATS).
